According to PubChem BioAssay AID738 (SRMLSC, 2007):
The list shows a part of the results, in another mix than the full data. Active and inactive are the calls of the source. Rule as the data show it: active = inhibition above about 30%; inactive = the rest.

Test: growth inhibition of yeast control strain, primary screen, counter-screen for post-Golgi transport modulator project (AID 738)
Conditions: efflux-deficient yeast background strain, growth absorbance A615, 16 h; at 10 µM; active compounds read high

SMILES	inhibition
COc1ccc(NC2CCN(CCc3ccccc3)CC2)c(OC)c1	inactive: 1.18%
O=C(NCC1(N2CCOCC2)CCCCC1)c1cc2ccccc2o1	inactive: -3.16%
O=C(OC1CN2CCC1CC2)C1c2ccccc2Oc2ccccc21 (centres undefined)	inactive: 6.18%
N#CC1(Nc2ccccc2)CCN(CCc2ccccc2)CC1	inactive: 6.32%
O=C(NCC1(N2CCOCC2)CCCCC1)c1cc(=O)[nH]c2ccccc12	inactive: 3.46%
c1ccc(CN2CCC(Nc3ccccc3)CC2)cc1	inactive: 0.44%
N/C(=N\O)c1c(N)no[n+]1[O-]	inactive: 7.92%
CCOc1ncccc1C(=O)NCC1(N2CCOCC2)CCCCC1	inactive: 5.78%
CCC(CO)(C(=O)OC1CN2CCC1CC2)c1ccccc1 (centres undefined)	inactive: 1.99%
